Some results are limits rather than exact numbers.

Protein sequences, listed by entry. Tags and fused reporters are not part of them. Residues count along the entry.
UniProt P00592, 23-146 limits assumed: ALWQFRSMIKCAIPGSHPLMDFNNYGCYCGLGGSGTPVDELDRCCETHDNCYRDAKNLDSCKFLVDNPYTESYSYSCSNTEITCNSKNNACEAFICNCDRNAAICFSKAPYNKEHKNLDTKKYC

One data set deals with A 549. Kind of data set: Cytotoxicity. The following applies: read-out: Cytotoxicity IC50 A 549; Table 1c.
Data set [1] has as its system Human blood erythrocytes. The experiment in a line: Haemolytic activity assay. It counts as cell-based.
The subject of another data set is MDCK. The experiment in a line: Cytotoxicity. The conditions noted are these: read-out: Cytotoxicity IC50 MDCK; Table 1c.
Data set [2] relates to Human blood erythrocytes. The conditions noted are these: background statement; cited from earlier work.
Data set [3] has as its target T1, ppPLA2 (Sus scrofa, UniProt P00592). The following applies: background statement; cited from earlier work.
The target in data set [4] is T1, ppPLA2. The experiment in a line: Phospholipase inhibition, radiometric assay. The conditions noted are these: read-out: Concentration required for 50% inhibition of ppPLA2.

On to `CCCCCc1cc[n+](CCCCCCCCCCCC[n+]2ccc(CCCCC)cc2)cc1`, for which, in the data set on A 549, the IC50 was found to be 230 µM.
With `CCCCC(CCCC)c1cc[n+](C)cc1C`, the “Hemolytic activity (in % of positive control which represents 100% lysis)” value in the data set on Human blood erythrocytes [1] (3.5 μM) was determined as 0%; with Human blood erythrocytes [1] (17.5 μM), 5%; in the data set with Human blood erythrocytes [1] (44 μM), 75%; in the data set with Human blood erythrocytes [1] (88 μM) it was 100%; with Human blood erythrocytes [1] (175 μM) it was 100%; in the data set with Human blood erythrocytes [1] (350 μM), 100%.
As for `CCCCCc1cccc[n+]1CCCCCCCCCCCC[n+]1ccccc1CCCCC`, the IC50 in the data set with MDCK stood at 300 µM.
For `CCCCCCCCNc1cc[n+](CCCCCCCCCC[n+]2ccc(NCCCCCCCC)cc2)cc1`, the “Haemolytic activity, in words” value with Human blood erythrocytes [2] is “strongly hemolytic”. At ppPLA2 [3], the “Inhibition of ppPLA2, in words” value is reported as “strong inhibitor”.
With “1,12-bis[4-(1-pentene)pyiridinium]dodecane dichloride”, the IC50 in the data set with A 549 and in the data set on MDCK was more than 350 µM throughout.
Regarding “1,12-bis(3,4-Dipentylpyridinium)dodecane”, the IC50 amounted to 40 µM with A 549 and 55 µM in the data set with MDCK.
Turning to 12-(4-Pentylpyridinium)dodecabromide, the IC50 with A 549 was 20 µM; with MDCK, 40 µM.
In the case of `CCOC(=O)Cc1cc[n+](C)cc1`, the “Hemolytic activity (in % of positive control which represents 100% lysis)” value in the data set on Human blood erythrocytes [1] (3.5 μM), in the data set with Human blood erythrocytes [1] (17.5 μM), with Human blood erythrocytes [1] (44 μM), with Human blood erythrocytes [1] (88 μM), in the data set with Human blood erythrocytes [1] (175 μM) and with Human blood erythrocytes [1] (350 μM) was 0% throughout.
Consider `CCCCCc1cc[n+](CCCCCCCCCCCCCC[n+]2ccc(CCCCC)cc2)cc1`, for which, at ppPLA2 [4], the IC50 was more than 125 µM.
As to `CCCCCc1cc[n+](C)cc1CCCCC`, the “Hemolytic activity (in % of positive control which represents 100% lysis)” value is 0% in the data set with Human blood erythrocytes [1] (3.5 μM); 50% in the data set with Human blood erythrocytes [1] (17.5 μM); 50% in the data set with Human blood erythrocytes [1] (44 μM); 100% in the data set with Human blood erythrocytes [1] (88 μM); 100% in the data set with Human blood erythrocytes [1] (175 μM); 100% in the data set on Human blood erythrocytes [1] (350 μM).
In the case of “1,12-bis[3-Methyl,4-pentyl(2-butyl)pyridinium]dodecane”, the IC50 with A 549 and with MDCK was 10 µM in each case.

The values above are taken from patent US20100016367A1, “BIS-PYRINIDIUM COMPOUNDS” (priority 2006, published 2010).
